Assay results published in patent publication US10428062B2, “Geminal substituted aminobenzisoxazole compounds as agonists of α7-nicotinic acetylcholine receptors” (Forum Pharmaceuticals, Inc., priority 2015, dated 2019).
Counter-ions that a name gives are not always drawn.

Protein sequences, listed by entry. Tags and fused reporters are not part of them. Residues count along the entry.
UniProt P36544, 23-502 limits assumed: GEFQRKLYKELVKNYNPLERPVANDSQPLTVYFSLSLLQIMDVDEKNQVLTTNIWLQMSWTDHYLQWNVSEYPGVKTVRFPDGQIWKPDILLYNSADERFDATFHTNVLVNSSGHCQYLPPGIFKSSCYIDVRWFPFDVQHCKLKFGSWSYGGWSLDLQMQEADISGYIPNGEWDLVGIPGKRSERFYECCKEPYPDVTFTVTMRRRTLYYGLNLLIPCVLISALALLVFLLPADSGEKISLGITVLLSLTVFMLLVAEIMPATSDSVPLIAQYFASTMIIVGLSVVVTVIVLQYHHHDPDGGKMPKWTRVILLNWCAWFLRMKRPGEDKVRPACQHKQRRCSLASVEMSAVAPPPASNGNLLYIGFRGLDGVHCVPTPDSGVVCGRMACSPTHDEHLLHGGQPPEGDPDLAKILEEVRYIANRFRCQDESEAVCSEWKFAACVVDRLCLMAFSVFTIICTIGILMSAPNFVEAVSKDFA

Each compound was assayed against human α7 nAChR (Homo sapiens, UniProt P36544) (assay: Human α7 nAChR binding assay ([125I]-αBungarotoxin competition, Cerep)). Settings: read-out: h- α7 Ki; SH-SY5Y membranes expressing human α7 nAChR, 0.05 nM [125I]-αBgt, 120 min at 37° C.

Compared with CC(C)Oc1c(Cl)ccc2c(N[C@@H]3C4CCN(CC4)C3(C)C)noc12, COc1c(Cl)ccc2c(N[C@@H]3C4CCN(CC4)C3(C)C)noc12 [Compound (R)-5, (R)-6-chloro-N-(2,2-dimethylquinuclidin-3-yl)-7-methoxybenzo[d]isoxazol-3-amine hydrochloride] is 5.7-fold lower in Ki: 410 nM for the first, 72 nM for the second.

Compared with CC(C)Oc1c(Cl)ccc2c(N[C@@H]3C4CCN(CC4)C34CC4)noc12, COc1c(Cl)ccc2c(N[C@@H]3C4CCN(CC4)C34CC4)noc12 [Compound (R)-20, (R)-6-chloro-7-methoxy-N-(1′-azaspiro[cyclopropane-1,2′-bicyclo[2.2.2]octan]-3′-yl)benzo[d]isoxazol-3-amine hydrochloride] is 8.3-fold lower in Ki: 250 nM for the first, 30 nM for the second. The second binds more tightly here.

First: Clc1ccc2c(N[C@H]3C4CCN(CC4)C34CC4)noc2c1
Second: Clc1ccc2c(NC3C4CCN(CC4)C34CC4)noc2c1 (racemic) [rac-16, 6-chloro-N-(1′-azaspiro[cyclopropane-1,2′-bicyclo[2.2.2]octan]-3′-yl)benzo[d]isoxazol-3-amine hydrochloride]
The Ki of the first is 34-fold higher: 1700 nM for the first, 50 nM for the second.

CC1(C)C(Nc2noc3cc(Cl)ccc23)C2CCN1CC2 (racemic) [rac-1, 6-chloro-N-(2,2-dimethylquinuclidin-3-yl)benzo[d]isoxazol-3-amine hydrochloride] and CC1(C)[C@H](Nc2noc3cc(Cl)ccc23)C2CCN1CC2 [Compound (R)-1, (R)-6-chloro-N-(2,2-dimethylquinuclidin-3-yl)benzo[d]isoxazol-3-amine] are within 1.5-fold of each other in Ki: 110 nM for the first, 120 nM for the second.

Clc1ccc2c(N[C@@H]3C4CCN(CC4)C34CC4)noc2c1Cl [(R)-19, (R)-6,7-dichloro-N-(1′-azaspiro[cyclopropane-1,2′-bicyclo[2.2.2]octan]-3′-yl)benzo[d]isoxazol-3-amine hydrochloride] and Fc1c(Cl)ccc2c(N[C@@H]3C4CCN(CC4)C34CC4)noc12 [Compound (R)-17, (R)-6-chloro-7-fluoro-N-(1′-azaspiro[cyclopropane-1,2′-bicyclo[2.2.2]octan]-3′-yl)benzo[d]isoxazol-3-amine hydrochloride] are within 1.5-fold of each other in Ki: 74.5 nM for the first, 99 nM for the second.

CC1(C)[C@H](Nc2noc3c(F)c(Cl)ccc23)C2CCN1CC2 [Compound (R)-2, (R)-6-chloro-N-(2,2-dimethylquinuclidin-3-yl)-7-fluorobenzo[d]isoxazol-3-amine hydrochloride] and CC1(C)[C@H](Nc2noc3c(Cl)c(Cl)ccc23)C2CCN1CC2 [Compound (R)-4, (R)-6,7-dichloro-N-(2,2-dimethylquinuclidin-3-yl)benzo[d]isoxazol-3-amine hydrochloride] are within 1.5-fold of each other in Ki: 129 nM for the first, 109 nM for the second.

COc1ccc2c(N[C@@H]3C4CCN(CC4)C3(C)C)noc2c1 [Compound (R)-3, (R)—N-(2,2-dimethylquinuclidin-3-yl)-6-methoxybenzo[d]isoxazol-3-amine hydrochloride] and Cc1ccc2c(N[C@@H]3C4CCN(CC4)C3(C)C)noc2c1 [Compound (R)-6, (R)—N-(2,2-dimethylquinuclidin-3-yl)-6-methylbenzo[d]isoxazol-3-amine hydrochloride] are within 1.5-fold of each other in Ki: 150 nM for the first, 135 nM for the second.

First: Cc1ccc2c(N[C@@H]3C4CCN(CC4)C3(C)C)noc2c1F [Compound (R)-7, (R)—N-(2,2-dimethylquinuclidin-3-yl)-7-fluoro-6-methylbenzo[d]isoxazol-3-amine hydrochloride]
Second: Cc1ccc2c(N[C@@H]3C4CCN(CC4)C3(C)C)noc2c1Cl [Compound (R)-13, (R)-7-chloro-N-(2,2-dimethylquinuclidin-3-yl)-6-methylbenzo[d]isoxazol-3-amine hydrochloride]
The Ki of the first is 2.2-fold lower: 80 nM for the first, 180 nM for the second. The first binds more tightly here.

CC1(C)[C@H](Nc2noc3c(Cl)c(F)ccc23)C2CCN1CC2 [Compound (R)-8, (R)-7-chloro-N-(2,2-dimethylquinuclidin-3-yl)-6-fluorobenzo[d]isoxazol-3-amine hydrochloride] and Cc1c(Cl)ccc2c(N[C@@H]3C4CCN(CC4)C3(C)C)noc12 [Compound (R)-10, (R)-6-chloro-N-(2,2-dimethylquinuclidin-3-yl)-7-methylbenzo[d]isoxazol-3-amine hydrochloride] are within 1.5-fold of each other in Ki: 195 nM for the first, 180 nM for the second.

First: Cc1cc2onc(N[C@@H]3C4CCN(CC4)C3(C)C)c2cc1F [Compound (R)-9, (R)—N-(2,2-dimethylquinuclidin-3-yl)-5-fluoro-6-methylbenzo[d]isoxazol-3-amine hydrochloride]
Second: CC1(C)[C@H](Nc2noc3cc(Cl)c(F)cc23)C2CCN1CC2 [Compound (R)-11, (R)-6-chloro-N-(2,2-dimethylquinuclidin-3-yl)-5-fluorobenzo[d]isoxazol-3-amine hydrochloride]
The Ki of the first is 2.2-fold higher: 630 nM for the first, 280 nM for the second. The second binds more tightly here.

First: CCOc1c(Cl)ccc2c(N[C@@H]3C4CCN(CC4)C3(C)C)noc12 [Compound (R)-12, (R)-6-chloro-N-(2,2-dimethylquinuclidin-3-yl)-7-ethoxybenzo[d]isoxazol-3-amine hydrochloride]
Second: CCOc1c(Cl)ccc2c(N[C@@H]3C4CCN(CC4)C34CC4)noc12 [Compound (R)-27, (R)-6-chloro-7-ethoxy-N-(1′-azaspiro[cyclopropane-1,2′-bicyclo[2.2.2]octan]-3′-yl)benzo[d]isoxazol-3-amine hydrochloride]
The Ki of the first is 1.8-fold higher: 305 nM for the first, 170 nM for the second.

CC1(C)[C@H](Nc2noc3c(C(F)(F)F)c(Cl)ccc23)C2CCN1CC2 [Compound (R)-14, (R)-6-chloro-N-(2,2-dimethylquinuclidin-3-yl)-7-(trifluoromethyl)benzo[d]isoxazol-3-amine hydrochloride] and FC(F)(F)c1c(Cl)ccc2c(N[C@@H]3C4CCN(CC4)C34CC4)noc12 [Compound (R)-29, (R)-6-chloro-N-(1′-azaspiro[cyclopropane-1,2′-bicyclo[2.2.2]octan]-3′-yl)-7-(trifluoromethyl)benzo[d]isoxazol-3-amine hydrochloride] are within 1.5-fold of each other in Ki: 345 nM for the first, 370 nM for the second.

First: Clc1ccc2c(N[C@@H]3C4CCN(CC4)C34CC4)noc2c1 [Compound (R)-16, (R)-6-chloro-N-(1′-azaspiro[cyclopropane-1,2′-bicyclo[2.2.2]octan]-3′-yl)benzo[d]isoxazol-3-amine]
Second: Cc1ccc2c(N[C@@H]3C4CCN(CC4)C34CC4)noc2c1 [Compound (R)-21, (R)-6-methyl-N-(1′-azaspiro[cyclopropane-1,2′-bicyclo[2.2.2]octan]-3′-yl) benzo[d]isoxazol-3-amine hydrochloride]
The Ki of the first is 3.1-fold lower: 74.7 nM for the first, 235 nM for the second. The first binds more tightly here.

Going from COc1ccc2c(N[C@@H]3C4CCN(CC4)C34CC4)noc2c1 [Compound (R)-18, (R)-6-methoxy-N-(1′-azaspiro[cyclopropane-1,2′-bicyclo[2.2.2]octan]-3′-yl)benzo[d]isoxazol-3-amine hydrochloride] to Cc1cc2onc(N[C@@H]3C4CCN(CC4)C34CC4)c2cc1F [Compound (R)-24, (R)-5-fluoro-6-methyl-N-(1′-azaspiro[cyclopropane-1,2′-bicyclo[2.2.2]octan]-3′-yl) benzo[d]isoxazol-3-amine hydrochloride], the Ki rises from 100 nM to 325 nM (3.2-fold).

Compared with Cc1ccc2c(N[C@@H]3C4CCN(CC4)C34CC4)noc2c1F [Compound (R)-22, (R)-7-fluoro-6-methyl-N-(1′-azaspiro[cyclopropane-1,2′-bicyclo[2.2.2]octan]-3′-yl)benzo[d]isoxazol-3-amine hydrochloride], Cc1ccc2c(N[C@@H]3C4CCN(CC4)C34CC4)noc2c1Cl [Compound (R)-28, (R)-7-chloro-6-methyl-N-(1′-azaspiro[cyclopropane-1,2′-bicyclo[2.2.2]octan]-3′-yl)benzo[d]isoxazol-3-amine hydrochloride] is 2.5-fold higher in Ki: 56 nM for the first, 140 nM for the second.

Compared with Fc1ccc2c(N[C@@H]3C4CCN(CC4)C34CC4)noc2c1Cl [Compound (R)-23, (R)-7-chloro-6-fluoro-N-(1′-azaspiro[cyclopropane-1,2′-bicyclo[2.2.2]octan]-3′-yl)benzo[d]isoxazol-3-amine hydrochloride], Cc1c(Cl)ccc2c(N[C@@H]3C4CCN(CC4)C34CC4)noc12 [Compound (R)-25, (R)-6-chloro-7-methyl-N-(1′-azaspiro[cyclopropane-1,2′-bicyclo[2.2.2]octan]-3′-yl)benzo[d]isoxazol-3-amine hydrochloride] is 2.6-fold lower in Ki: 230 nM for the first, 90 nM for the second.

Fc1cc2c(N[C@@H]3C4CCN(CC4)C34CC4)noc2cc1Cl [Compound (R)-26, (R)-6-chloro-5-fluoro-N-(1′-azaspiro[cyclopropane-1,2′-bicyclo[2.2.2]octan]-3′-yl)benzo[d]isoxazol-3-amine hydrochloride] showed a Ki of 200 nM.
